Source: patent publication US20260274894A1, “CYCLIC POLYPEPTIDE COMPOUND AND USE THEREOF” (BIVISION PHARMACEUTICALS, INC., priority 2023, published 2026)
Read-outs that look alike come from different tables or passages of the source.

Experiments:
[1] = Biodistribution of ^177Lu-labeled compound in tumor-bearing mice; assay type: in vivo; conditions: Balb/c Nude, mouse, iv, 3.7 MBq/mouse, total radioactivity
Experimental: Tissue distribution in FAP-positive tumor-bearing mice: […] […] The samples were measured on the day of collection.

[2] = Animal body weight after injection of ^177Lu-labeled compound
Experimental: 6- to 8-week-old (Balb/c Nude) mice were subcutaneously inoculated on the right scapula with 2×10^6 cells of HT1080 2 # (50% o Matrigel, Corning). When the tumors grew to the size as required by the assay, the animals were randomly assigned to 13 experimental groups based on tumor volume, with 5 animals per group. The body weight and tumor size were measured. On the day of grouping, administration was initiated for the control group (normal saline) and groups 1-12. General health and appearance were observed daily after the experiment began. Body weight and tumor size were measured prior to each sample collection time point. Any abnormal observations found during the entire study period were required to be recorded in the raw data.

[3] = in vivo, Distribution in tumor-bearing mice, Blood
[4] = in vivo, Distribution in tumor-bearing mice, Kidney
[5] = in vivo, Distribution in tumor-bearing mice, Liver
[6] = in vivo, Distribution in tumor-bearing mice, Muscle
[7] = in vivo, Distribution in tumor-bearing mice, Tumor

Row | Compound | tissue uptake at 24 h [1, 3] [%ID/g] | tissue uptake at 24 h [1, 4] [%ID/g] | tissue uptake at 24 h [1, 5] [%ID/g] | tissue uptake at 24 h [1, 6] [%ID/g] | tissue uptake at 24 h [1, 7] [%ID/g] | tissue uptake at 24 h ([1]; blood, 24 h after tail vein injection, read-out: Distribution in tumor-bearing mice, Blood) [%ID/g] | tissue uptake at 24 h ([1]; kidney, 24 h after tail vein injection, read-out: Distribution in tumor-bearing mice, Kidney) [%ID/g] | tissue uptake at 24 h ([1]; liver, 24 h after tail vein injection, read-out: Distribution in tumor-bearing mice, Liver) [%ID/g] | tissue uptake at 24 h ([1]; muscle, 24 h after tail vein injection, read-out: Distribution in tumor-bearing mice, Muscle) [%ID/g] | tissue uptake at 24 h ([1]; tumor, 24 h after tail vein injection, read-out: Distribution in tumor-bearing mice, Tumor) [%ID/g] | Animal body weight ([2]; Day 0) [g] | Animal body weight ([2]; Day 2) [g] | Animal body weight ([2]; Day 6) [g] | Animal body weight ([2]; Day 9) [g] | Animal body weight ([2]; Day 13) [g] | Animal body weight ([2]; Day 16) [g]
1 | CCCCNC(=O)N[C@H]1CSCc2cccc(c2)CSC[C@@H](C(=O)N[C@H](CC(=O)O)CC(=O)NCCNC(=O)CN2CCN(C(=O)CN3CCN(CC(=O)O)CCN(CC(=O)O)CCN(CC(=O)O)CC3)CC2)NC(=O)[C@H](CC2CCCCC2)NC(=O)[C@H](CCC(N)=O)NC(=O)[C@H]([C@@H](C)O)NC(=O)[C@@H]2CCCN2C(=O)C2CN(C2)C1=O (single isomer, unassigned) [^177Lu-JHDC42, metal not drawn] | 0.96 ± 0.113 | 3.62 ± 0.385 | 3.79 ± 0.198 | 1.75 ± 0.0919 | 18.4 ± 2.72 |  |  |  |  |  |  |  |  |  |  | 
2 | CCCCNC(=O)N[C@H]1CSCc2cncc(c2)CSC[C@@H](C(=O)N[C@@H](CCC(=O)NCCN2CCN(C(=O)CN3CCN(CC(=O)O)CCN(CC(=O)O)CCN(CC(=O)O)CC3)CC2)C(=O)O)NC(=O)[C@H](CC2CCCCC2)NC(=O)[C@H](CCC(N)=O)NC(=O)[C@H]([C@@H](C)O)NC(=O)[C@@H]2CCCN2C(=O)C2CN(C2)C1=O (single isomer, unassigned) [^177Lu-JHDC46, metal not drawn] | 0.05 | 3.77 ± 0.173 | 3.23 ± 0.371 | 1.72 ± 0.152 | 23.2 ± 4.74 |  |  |  |  |  |  |  |  |  |  | 
3 | CCCCNC(=O)N[C@H]1CSCc2cccc(c2)CSCC(C(=O)N[C@@H](CCNC(=O)CNC(=O)CN2CCN(CC(=O)O)CCN(CC(=O)O)CCN(CC(=O)O)CC2)C(=O)O)NC(=O)[C@H](CC2CCCCC2)NC(=O)[C@H](CCC(N)=O)NC(=O)[C@H]([C@@H](C)O)NC(=O)[C@@H]2CCCN2C(=O)C2CN(C2)C1=O (single isomer, unassigned) [^177Lu-JHDC56, metal not drawn] | 0.075 ± 0.0035 | 3.08 ± 0.237 | 0.845 ± 0.0672 | 0.345 ± 0.0035 | 16.8 ± 3.08 |  |  |  |  |  |  |  |  |  |  | 
4 | CCCCCC(=O)N[C@H]1CSCc2cc(CSCCNC(=O)CN3CCN(CC(=O)O)CCN(CC(=O)O)CCN(CC(=O)O)CC3)cc(c2)CSC[C@@H](C(=O)O)NC(=O)[C@H](Cc2ccccc2)NC(=O)[C@H](CCC(N)=O)NC(=O)[C@H]([C@@H](C)O)NC(=O)[C@@H]2CCCN2C(=O)[C@@H]2CCCN2C1=O [^177Lu-FAP-2286, metal not drawn, reference compound] |  |  |  |  |  | 0.015 ± 0.0035 | 3.21 ± 0.148 | 0.145 ± 0.0106 | 0.04 | 5.78 ± 2.17 | 14.67 ± 0.37 | 16.10 ± 0.85 | 15.60 ± 0.49 | 15.87 ± 0.68 | 16.23 ± 0.92 | 17.07 ± 1.02
5 | CCCCNC(=O)N[C@H]1CSCc2cccc(c2)CSCC(C(=O)N[C@@H](CNC(=O)CN2CCN(C(=O)CN3CCN(CC(=O)O)CCN(CC(=O)O)CCN(CC(=O)O)CC3)CC2)C(=O)O)NC(=O)[C@H](CC2CCCCC2)NC(=O)[C@H](CCC(N)=O)NC(=O)[C@H]([C@@H](C)O)NC(=O)C2CCCN2C(=O)C2CN(C2)C1=O (some centres unmarked) [^177Lu-JHDC47, metal not drawn] | 0.445 ± 0.0318 | 3.905 ± 0.0035 | 2.1 ± 0.0141 | 0.67 ± 0.099 | 16.4 ± 1.38 |  |  |  |  |  | 15.20 ± 0.38 |  | 15.87 ± 0.33 | 15.33 ± 0.41 | 16.73 ± 0.40 | 17.43 ± 0.48
6 | CCCCNC(=O)N[C@H]1CSCc2cccc(c2)CSC[C@@H](C(=O)N[C@@H](CCC(=O)NCCCN2CCN(C(=O)CN3CCN(CC(=O)O)CCN(CC(=O)O)CCN(CC(=O)O)CC3)CC2)C(=O)O)NC(=O)[C@H](Cc2ccccc2)NC(=O)[C@H](CCC(N)=O)NC(=O)[C@H]([C@@H](C)O)NC(=O)[C@@H]2CCCN2C(=O)C2CN(C2)C1=O [^177Lu-JHDC48, metal not drawn] | 0.965 ± 0.0247 | 1.9 | 2.46 ± 0.102 | 2.44 ± 0.325 | 15.1 ± 0.65 |  |  |  |  |  |  |  |  |  |  | 
7 | CCCCCC(=O)N[C@H]1CSCc2cccc(c2)CSC[C@@H](C(=O)N[C@@H](CCNC(=O)CCCCCCCNC(=O)CN2CCN(CC(=O)O)CCN(CC(=O)O)CCN(CC(=O)O)CC2)C(=O)O)NC(=O)[C@H](CC2CCCCC2)NC(=O)[C@H](CCC(N)=O)NC(=O)[C@H]([C@@H](C)O)NC(=O)[C@@H]2CCCN2C(=O)C2CN(C2)C1=O [^177Lu-JHDC52, metal not drawn] | 0.06 | 6.715 ± 0.0601 | 0.74 ± 0.0495 | 0.335 ± 0.0177 | 7.76 ± 0.629 |  |  |  |  |  |  |  |  |  |  | 
8 | CCCCNC(=O)N[C@H]1CSCc2cccc(c2)CSCC(C(=O)N[C@@H](CCNC(=O)CCCCCCCNC(=O)CN2CCN(CC(=O)O)CCN(CC(=O)O)CCN(CC(=O)O)CC2)C(=O)O)NC(=O)[C@H](CC2CCCCC2)NC(=O)[C@H](CCC(N)=O)NC(=O)[C@H]([C@@H](C)O)NC(=O)C2CCCN2C(=O)C2CN(C2)C1=O (some centres unmarked) [^177Lu-JHDC53, metal not drawn] | 0.585 ± 0.046 | 3.21 ± 0.184 | 2.1 ± 0.0672 | 1.73 ± 0.0141 | 16.8 ± 2.84 |  |  |  |  |  |  |  |  |  |  | 
9 | CCCCNC(=O)N[C@H]1CSCc2cccc(c2)CSCC(C(=O)N[C@@H](CCNC(=O)CCCNC(=O)CN2CCN(CC(=O)O)CCN(CC(=O)O)CCN(CC(=O)O)CC2)C(=O)O)NC(=O)[C@H](CC2CCCCC2)NC(=O)[C@H](CCC(N)=O)NC(=O)[C@H]([C@@H](C)O)NC(=O)[C@@H]2CCCN2C(=O)C2CN(C2)C1=O (some centres unmarked) [^177Lu-JHDC55, metal not drawn] | 0.46 ± 0.0141 | 3.14 ± 0.205 | 1.69 ± 0.0566 | 1.25 ± 0.0566 | 16 ± 0.817 |  |  |  |  |  |  |  |  |  |  | 
